## Antibody variant affinities, Ab-91 heavy chain, assay 2

Values reported by Engelhart et al. 2022, doi:10.1038/s41597-022-01779-4 (FLAb copy).

All variants were tested on one target, the spike HR2 peptide PDVDLGDISGINAS (SARS-CoV-2).

Ab-91 is the parent antibody, in scFv form: VL, then a 15-residue (Gly4Ser)3 linker, then VH. The light chain is unchanged in all variants.
VL: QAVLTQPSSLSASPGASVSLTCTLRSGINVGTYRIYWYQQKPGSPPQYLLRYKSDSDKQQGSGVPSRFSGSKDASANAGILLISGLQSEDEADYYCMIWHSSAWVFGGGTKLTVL
VH: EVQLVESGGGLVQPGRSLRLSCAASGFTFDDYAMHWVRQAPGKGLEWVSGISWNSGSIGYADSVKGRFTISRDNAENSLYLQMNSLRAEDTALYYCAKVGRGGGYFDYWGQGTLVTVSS

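Phage display of a naive human antibody library on the peptide gave the parent. Variants in AAYL51 differ from the parent at up to three CDR positions; double and triple changes were sampled at random. Affinity was read by AlphaSeq, a pooled yeast mating assay with surface-displayed partners. Pairs that bind mate more often; barcode pairs of the diploids are counted by sequencing. Each replicate has its own calibration line, from reference interactions of the BCL2 family. The assay was run in three technical replicates.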

Substitutions are numbered in sequence along the VH above, starting at 1 (not Kabat).
The read-out is the apparent dissociation constant on a log10 scale (nM): the lower, the stronger.
Where no diploid with the target was found in that replicate, the entry reads "n.d.": below detection, most likely a poor binder, though not proof of it.

{"changes": "F29V+Y32A+A33N", "log10 Kd (nM) by replicate": "n.d. / n.d. / 3.69", "empty controls": "2 of 9 (4.73)"}
{"changes": "G26I+G59D+G103Q", "log10 Kd (nM) by replicate": "4.53 / n.d. / n.d.", "empty controls": "0 of 9"}
{"changes": "S57L+V64N+G100N", "log10 Kd (nM) by replicate": "n.d. / n.d. / n.d.", "empty controls": "1 of 9 (4.96)"}
{"changes": "G50Y+D62T+R101W", "log10 Kd (nM) by replicate": "n.d. / n.d. / n.d.", "empty controls": "0 of 9"}
{"changes": "G50L+G56D+Y60D", "log10 Kd (nM) by replicate": "n.d. / n.d. / n.d.", "empty controls": "1 of 9 (5.02)"}
{"changes": "Y32N+V99D+Y105Q", "log10 Kd (nM) by replicate": "n.d. / n.d. / n.d.", "empty controls": "0 of 9"}
{"changes": "N54A+S55R+S63Q", "log10 Kd (nM) by replicate": "4.94 / n.d. / n.d.", "empty controls": "3 of 9 (4.15)"}
{"changes": "D31G+S52D+S63P", "log10 Kd (nM) by replicate": "3.45 / 3.45 / 3.40", "empty controls": "5 of 9 (5.10)"}
{"changes": "G26M+H35V+Y60K", "log10 Kd (nM) by replicate": "n.d. / n.d. / n.d.", "empty controls": "0 of 9"}
{"changes": "G50V+R101V+G103T", "log10 Kd (nM) by replicate": "n.d. / 5.28 / n.d.", "empty controls": "5 of 9 (4.74)"}
{"changes": "F27I+T28I+D31E", "log10 Kd (nM) by replicate": "n.d. / n.d. / n.d.", "empty controls": "1 of 9 (3.86)"}
{"changes": "G50C+G56I+Y108V", "log10 Kd (nM) by replicate": "n.d. / n.d. / n.d.", "empty controls": "0 of 9"}
{"changes": "G50R+S52R+G56C", "log10 Kd (nM) by replicate": "5.67 / 5.91 / 5.48", "empty controls": "6 of 9 (4.97)"}
{"changes": "S57I+S63D+V99Y", "log10 Kd (nM) by replicate": "n.d. / n.d. / n.d.", "empty controls": "2 of 9 (3.93)"}
{"changes": "M34D+G50L+I58G", "log10 Kd (nM) by replicate": "n.d. / n.d. / n.d.", "empty controls": "0 of 9"}
{"changes": "S55L+G102I+Y108K", "log10 Kd (nM) by replicate": "n.d. / n.d. / n.d.", "empty controls": "1 of 9 (4.73)"}
{"changes": "F27L+A33D+Y60R", "log10 Kd (nM) by replicate": "n.d. / n.d. / n.d.", "empty controls": "0 of 9"}
{"changes": "G26I+I51Y+G100W", "log10 Kd (nM) by replicate": "5.35 / 6.14 / 5.47", "empty controls": "6 of 9 (5.37)"}
{"changes": "N54Y+I58Q+D107Q", "log10 Kd (nM) by replicate": "n.d. / 4.89 / n.d.", "empty controls": "0 of 9"}
{"changes": "F29C+V99L+G104I", "log10 Kd (nM) by replicate": "n.d. / 3.84 / n.d.", "empty controls": "5 of 9 (4.66)"}
{"changes": "I51T+G59V+V99I", "log10 Kd (nM) by replicate": "6.04 / 3.70 / n.d.", "empty controls": "5 of 9 (5.20)"}
{"changes": "F27L+S57M+G104S", "log10 Kd (nM) by replicate": "n.d. / 5.81 / n.d.", "empty controls": "1 of 9 (2.51)"}
{"changes": "D31K+W53S", "log10 Kd (nM) by replicate": "1.42 / 1.94 / 1.27", "empty controls": "4 of 9 (3.79)"}

Picked from the list: the 3 lowest averages where every replicate gave a value.

{"changes": "D31K+W53S", "log10 Kd (nM) by replicate": "1.42 / 1.94 / 1.27", "empty controls": "4 of 9 (3.79)"}
{"changes": "D31G+S52D+S63P", "log10 Kd (nM) by replicate": "3.45 / 3.45 / 3.40", "empty controls": "5 of 9 (5.10)"}
{"changes": "G26I+I51Y+G100W", "log10 Kd (nM) by replicate": "5.35 / 6.14 / 5.47", "empty controls": "6 of 9 (5.37)"}

Background: pairings of library AAYL51 with three empty control strains gave a value in 21% of cases (median 4.54, 5th percentile 3.26). Values in that range, when seen in few replicates, are hard to tell from nonspecific mating. Also given: how often the same scFv was detected with the empty control strains, with their mean in brackets.